Experimental data published in ChEMBL document CHEMBL1938260.
Active and inactive are the calls of the source. No cut-off for these calls is given here.

Chains of the proteins cited; added tags and fusions are not shown. Lines headed by an entry give the natural chain unless they say otherwise; changes in a name come on top.
UniProt P33535, whole entry, looked up: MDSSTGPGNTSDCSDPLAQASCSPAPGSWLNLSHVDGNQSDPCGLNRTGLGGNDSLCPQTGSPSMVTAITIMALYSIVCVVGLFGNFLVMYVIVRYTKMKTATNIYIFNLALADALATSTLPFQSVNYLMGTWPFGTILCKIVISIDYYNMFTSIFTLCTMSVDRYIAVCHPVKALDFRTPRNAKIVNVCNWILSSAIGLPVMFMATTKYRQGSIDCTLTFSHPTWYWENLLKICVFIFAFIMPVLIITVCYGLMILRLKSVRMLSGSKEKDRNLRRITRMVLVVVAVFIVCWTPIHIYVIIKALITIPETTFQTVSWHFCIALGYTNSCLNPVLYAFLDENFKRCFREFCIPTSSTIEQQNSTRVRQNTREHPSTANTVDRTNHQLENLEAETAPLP
UniProt P41145: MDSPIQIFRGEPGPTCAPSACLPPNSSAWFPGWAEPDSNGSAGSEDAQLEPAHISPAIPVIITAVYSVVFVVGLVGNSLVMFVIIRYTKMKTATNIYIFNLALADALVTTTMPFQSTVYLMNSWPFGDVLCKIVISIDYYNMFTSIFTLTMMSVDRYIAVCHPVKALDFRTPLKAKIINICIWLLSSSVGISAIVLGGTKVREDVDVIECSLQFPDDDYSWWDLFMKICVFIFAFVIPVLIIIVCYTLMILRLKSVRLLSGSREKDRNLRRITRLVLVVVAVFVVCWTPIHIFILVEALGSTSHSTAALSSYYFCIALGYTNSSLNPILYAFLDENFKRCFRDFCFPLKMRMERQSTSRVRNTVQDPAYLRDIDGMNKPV
UniProt P32300, whole entry, looked up: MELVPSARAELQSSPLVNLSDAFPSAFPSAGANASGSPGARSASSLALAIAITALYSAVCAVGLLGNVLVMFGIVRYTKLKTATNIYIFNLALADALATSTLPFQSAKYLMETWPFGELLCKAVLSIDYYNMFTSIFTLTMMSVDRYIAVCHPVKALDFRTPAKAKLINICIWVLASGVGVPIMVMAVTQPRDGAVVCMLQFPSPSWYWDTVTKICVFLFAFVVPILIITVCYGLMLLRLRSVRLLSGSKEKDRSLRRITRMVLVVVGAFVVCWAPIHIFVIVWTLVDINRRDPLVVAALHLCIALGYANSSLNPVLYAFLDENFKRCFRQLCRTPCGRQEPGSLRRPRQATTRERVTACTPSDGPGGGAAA

Columns and labels:
[1] = target: Mu-type opioid receptor (Rattus norvegicus) (UniProt P33535); assay: Displacement of [3H]diprenorphine from rat MOPR expressed in CHO cells at 3 uM
[2] = target: Kappa-type opioid receptor (Homo sapiens) (UniProt P41145); assay: Agonist activity at KOPR expressed in human U2OS cells co-expressing GFP-tagged beta-arrestin2 assessed as translocation of GFP-tagged beta-arrestin2 at 10 uM incubated 120 mins in serum deprived medium prior drug addition measured after 10 mins by confocal microscopy
[3] = target: Delta-type opioid receptor (Mus musculus) (UniProt P32300); assay: Displacement of [3H]diprenorphine from mouse DOPR expressed in CHO cells at 3 uM
[4] = target: Kappa-type opioid receptor (Homo sapiens) (UniProt P41145); assay: Agonist activity at human KOPR expressed in CHO cells assessed as [35S]GTPgammaS binding at 3 uM after 60 mins by liquid scintillation counting relative to U50,488H
[5] = target: Kappa-type opioid receptor (Homo sapiens) (UniProt P41145); assay: Agonist activity at human KOPR expressed in U2OS cells assessed as beta-arrestin2 recruitment after 90 mins by DiscoveRx PathHunter assay relative to salvA
[6] = target: Kappa-type opioid receptor (Homo sapiens) (UniProt P41145); assay: Agonist activity at human KOPR expressed in CHO cells assessed as [35S]GTPgammaS binding after 60 mins by liquid scintillation counting relative to U50,488H
[7] = target: Kappa-type opioid receptor (Homo sapiens) (UniProt P41145); assay: Ratio of EC50 for agonist activity at human KOPR expressed in U2OS cells assessed as beta-arrestin2 recruitment to EC50 for agonist activity at human KOPR expressed in CHO cells assessed as [35S]GTPgammaS binding

Row | Compound | inhibition [1] | Activity [2] | Activity [3] | Emax [4] | Emax [5] | Emax [6] | Ratio EC50 [7]
1 | CN(C(=O)Cc1ccc(Cl)c(Cl)c1)C1CCCCC1N1CCCC1 (stereo unspecified) | < 50% |  |  |  |  |  | 
2 | COC(=O)[C@@H]1C[C@H](OC(C)=O)C(=O)[C@H]2[C@@]1(C)CC[C@H]1C(=O)O[C@H](c3ccoc3)C[C@]21C | < 50% | Active |  |  |  |  | 
3 | COCO[C@H]1C[C@@H](C(=O)OC)[C@]2(C)CC[C@H]3C(=O)O[C@@H](c4ccoc4)C[C@]3(C)[C@H]2C1=O | < 50% |  | inactive | 100% |  |  | 
4 | COC(=O)[C@@H]1C[C@H](OC(C)=O)C(=O)[C@H]2[C@@]1(C)CC[C@H]1C(=O)O[C@@H](c3ccoc3)C[C@]21C |  | Active | inactive |  |  |  | 
5 | COC(=O)[C@@H]1C[C@H](OC(C)=O)C(=O)[C@H]2[C@@]1(C)CC[C@H]1C(=O)O[C@@H](c3ccoc3Br)C[C@]21C | < 50% |  | inactive |  |  |  | 
6 | COC(=O)[C@@H]1C[C@H](OC(C)=O)C(=O)[C@H]2[C@@]1(C)CC[C@H]1C(=O)O[C@@H](c3cc(Br)oc3Br)C[C@]21C |  |  | inactive | 100% |  |  | 
7 | CCOCO[C@H]1C[C@@H](C(=O)OC)[C@]2(C)CC[C@H]3C(=O)O[C@@H](c4ccoc4)C[C@]3(C)[C@H]2C1=O | < 50% | Active | inactive |  | 127% | 103% | 3
8 | COC(=O)[C@@H]1C[C@H](O)C(=O)[C@H]2[C@@]1(C)CC[C@H]1C(=O)O[C@@H](c3ccoc3)C[C@]21C | < 50% |  | inactive | 100% |  |  | 
